Measured values: publication PMC6287471 (International Journal for Parasitology: Drugs and Drug …, 2018)

Assays:
Format in all cases: cell-based
Hco-ACC-2 F200W = biological target: T1, Hco-ACC-2 F200W (Haemonchus contortus, UniProt A0A219KWM7, F200W); test: Two-electrode voltage clamp of Hco-ACC-2 F200W mutant in Xenopus laevis oocytes
T1 sequence (A0A219KWM7 18-443 F200W): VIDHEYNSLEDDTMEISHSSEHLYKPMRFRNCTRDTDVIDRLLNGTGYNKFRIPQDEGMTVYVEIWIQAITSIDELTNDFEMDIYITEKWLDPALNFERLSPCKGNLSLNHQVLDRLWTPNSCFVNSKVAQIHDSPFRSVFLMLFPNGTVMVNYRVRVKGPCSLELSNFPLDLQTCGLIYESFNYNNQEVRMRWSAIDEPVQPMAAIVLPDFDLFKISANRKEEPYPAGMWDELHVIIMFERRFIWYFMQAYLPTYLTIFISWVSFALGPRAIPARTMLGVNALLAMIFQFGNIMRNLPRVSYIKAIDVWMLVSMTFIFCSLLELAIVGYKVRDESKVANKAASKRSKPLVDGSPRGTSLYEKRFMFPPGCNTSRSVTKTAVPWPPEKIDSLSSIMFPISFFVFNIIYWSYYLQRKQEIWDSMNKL

Hco-ACC-2 F200W/W248F = biological target: T2, Hco-ACC-2 F200W/W248F (Haemonchus contortus, UniProt A0A219KWM7, F200W/W248F)
T2 sequence (A0A219KWM7 18-443 F200W/W248F): T1 sequence (A0A219KWM7 18-443 F200W)

Hco-ACC-2 F200Y = biological target: T3, Hco-ACC-2 F200Y (Haemonchus contortus, UniProt A0A219KWM7, F200Y); test: Two-electrode voltage clamp of Hco-ACC-2 F200Y mutant in Xenopus laevis oocytes
T3 sequence (A0A219KWM7 18-443 F200Y): T1 sequence (A0A219KWM7 18-443 F200W)

Hco-ACC-2 W248F = biological target: T4, Hco-ACC-2 W248F (Haemonchus contortus, UniProt A0A219KWM7, W248F); test: Two-electrode voltage clamp of Hco-ACC-2 W248F mutant in Xenopus laevis oocytes
T4 sequence (A0A219KWM7 18-443 W248F): T1 sequence (A0A219KWM7 18-443 F200W)

Hco-ACC-2 W248Y = biological target: T5, Hco-ACC-2 W248Y (Haemonchus contortus, UniProt A0A219KWM7, W248Y); test: Two-electrode voltage clamp of Hco-ACC-2 W248Y mutant in Xenopus laevis oocytes
T5 sequence (A0A219KWM7 18-443 W248Y): T1 sequence (A0A219KWM7 18-443 F200W)

CC(=O)OCC[N+](C)(C)C [Acetylcholine]
EC50 (Hco-ACC-2 F200W): 61 ± 4 µM
EC50 (Hco-ACC-2 F200W/W248F): > 20000 µM
EC50 (Hco-ACC-2 F200Y; EC50, F200Y mutant): 3 ± 0.1 µM
EC50 (Hco-ACC-2 F200Y; EC50 ± standard error, F200Y, F200Y mutant, n ≥ 5 oocytes): 2.9 ± 0.1 µM
EC50 (Hco-ACC-2 W248F): 5600 ± 1260 µM
EC50 (Hco-ACC-2 W248Y): 7850 ± 275 µM
